Screen for blockers of NLRP3-driven cell death, PubChem AID 2061109 (Seoul National University).
Cells: mouse bone marrow macrophages; stimulus: LPS priming, then nigericin; dose: 5 µM; read-out: propidium iodide uptake by live imaging.
Inhibition in %: 0 = stimulated control, 100 = untreated cells; values below 0 were filed as 0. * marks the depositor's active call (above 70%). Part of the library is listed.

inhibition (%) | compound
63.1 | CN1CC[C@@H](COC(=O)Nc2ccccc2-c2ccc(F)c(Cl)c2)C1
63.0 | c1ccc(-c2nn3c(c2-c2ccnc4cc(OCCN5CCOCC5)ccc24)CCC3)nc1
63.0 | CC[C@H](N)c1ccc(N(C)C)cc1C
62.9 | c1ccc(Cn2c(N3CCNCC3)nc3ccccc32)cc1
62.9 | [Cl-].[Cs+]
62.8 | CCCCCCS(=O)(=O)NC(=O)c1ccc(CSCc2ccc(-c3ccccc3)cc2)cc1
62.8 | CC(=O)OC(C)(C)CCC(=O)[C@](C)(O)[C@H]1[C@H](O)C[C@@]2(C)[C@@H]3CC=C4[C@@H](C[C@H](O)[C@@H](O)C4(C)C)[C@]3(C)C(=O)C[C@]12C
62.7 | CN1CCC(Nc2ncc3ncnc(Nc4ccc(F)c(Cl)c4)c3n2)CC1
62.7 | O=C(/C=C\n1cnc(-c2cc(C(F)(F)F)cc(C(F)(F)F)c2)n1)N1CC(F)(F)C1
62.6 | COc1cc([C@@H]2c3cc4c(cc3[C@H](O)[C@H]3COC(=O)[C@@H]23)OCO4)cc(OC)c1OC
62.4 | Cc1c(-c2ccc3cccnc3c2)nnn1-c1cccnc1F
62.4 | Cn1cc(-c2c[nH]c3ncnc(N4CCOCC4)c23)cn1
62.4 | COc1ccc(-c2cc(=O)c3c(O)cc(O[C@@H]4O[C@H](CO[C@@H]5O[C@@H](C)[C@H](O)[C@@H](O)[C@H]5O)[C@@H](O)[C@H](O)[C@H]4O)cc3o2)cc1
62.3 | C#C[C@]1(CO)O[C@@H](n2cnc3c(N)nc(F)nc32)C[C@@H]1O
62.3 | CCOc1ccc(Nc2nc(-c3c(C)nc4ccccn34)cs2)cc1
62.2 | CC(=O)N1CCCC1(Cc1ccc(S(C)(=O)=O)cc1)C(=O)OCc1ccccc1
62.2 | COc1ccccc1/C=C/C(=O)O
62.2 | CCN1C[C@]2(COC)CC[C@H](OC)[C@]34C1[C@H](C[C@H]23)[C@@]1(O)C[C@H](OC)[C@H]2C[C@@H]4[C@@H]1[C@H]2O
62.1 | CCN1C[C@@]2(COC)[C@H]3[C@@H](OC)[C@H]4C1[C@]3([C@@H](OC)C[C@H]2OC(C)=O)[C@@H]1C[C@@]2(O)[C@H](OC(=O)c3ccccc3)[C@@H]1[C@]4(OC(C)=O)[C@@H](O)[C@@H]2OC
62.0 | O=P(O)(O)COC[C@H]1O[C@@H](n2ncc3c(NC4CCCC4)nc(Cl)nc32)[C@H](O)[C@@H]1O
62.0 | O=c1c(O[C@@H]2OC[C@H](O)[C@H](O)[C@H]2O)c(-c2ccc(O)c(O)c2)oc2cc(O)cc(O)c12
62.0 | CSc1ccc(C(=O)c2[nH]c(=O)[nH]c2C)cc1
62.0 | COc1ccc(-c2cc(=O)c3c(O)cc(O)c(-c4cc(-c5cc(=O)c6c(O)cc(OC)cc6o5)ccc4OC)c3o2)cc1
61.9 | Cl.O=C(NCCCNc1nc(Nc2cccc(CN3CCOCC3)c2)ncc1C1CC1)C1CCC1
61.8 | OCCNCc1cc(Br)ccc1OCc1ccc(F)c(C(F)(F)F)c1
61.2 | O=C1NC(=O)/C(=C/c2ccc(-c3ccc(F)cc3O)o2)S1
61.1 | CCN(CC)CCNC(=S)Nc1ccc2nc(N3CCN(CC)CC3)cc(C)c2c1
61.1 | COc1ccc2[nH]c(C(=O)N3CCC(CC(C)(C)O)CC3)cc2c1
61.0 | C[C@@H](NC(=O)c1ccc(Cl)cc1)C1CCC(c2ccnc3ccc(F)cc23)CC1
60.8 | CC[C@@H]1[C@H](F)C(=O)N[C@@H]1COc1nccc2cc(C(N)=O)c(OC)cc12
60.8 | COc1cc(F)c(F)c(Nc2ccc(I)cc2F)c1NS(=O)(=O)C1(C[C@H](O)CO)CC1
60.8 | COc1ccc2c(c1)CN(C)CC2c1ccc(Cl)c(Cl)c1.Cl
60.5 | OC[C@H]1OC(O)C[C@@H](O)[C@@H]1O
60.1 | c1ccc(-c2oc3ncnc(NC[C@@H]4CCCO4)c3c2-c2ccccc2)cc1
60.0 | O=c1[nH]c(=O)c2cn[nH]c2[nH]1
60.0 | Cc1ccc(C2CC(=O)NC(SCC(=O)Nc3nccs3)=C2C#N)cc1
59.9 | COc1cc(O)cc(O)c1C(=O)/C=C/c1ccc(O)cc1
59.8 | CCOC(=O)c1cc(C#N)c(N2CCC(C(=O)NS(=O)(=O)Cc3ccccc3)CC2)nc1C
59.8 | COc1c(N2CCNC(C)C2)c(F)cc2c(=O)c(C(=O)O)cn(C3CC3)c12.Cl
59.5 | CC[C@H](C)[C@@H]([C@@H](CC(=O)N1CCC[C@H]1[C@H](OC)[C@@H](C)C(=O)N[C@H](C)[C@@H](O)c1ccccc1)OC)N(C)C(=O)[C@@H](NC(=O)[C@@H](NC)C(C)C)C(C)C
59.3 | Cc1ccc(-c2c(C#N)c(N)n3c(nc4ccccc43)c2C#N)cc1
59.1 | C=CC(=O)Nc1cccc(-c2cccc3cnc(Nc4ccc(N5CCN(CCO)CC5)c(F)c4F)nc23)c1
59.1 | Nc1ccc(/C=C/C(=O)NCc2cc3cc(-c4ccc(C(=O)N5CCC(F)(F)CC5)cc4)cc(-c4ccc(F)cc4)c3o2)cn1
59.1 | COc1ccc(NC(=O)c2n[nH]c3ccc(-c4cncc(CN5CCCCC5)c4)cc23)cn1
59.0 | CCS(=O)(=O)c1cccc(-c2cc(C(=O)NC3CCN(C)CC3)c(C)c3[nH]c4ncc(C)cc4c23)c1
58.8 | CC(C)C(=O)N1CCN(c2ccc(NC(=O)c3cc4ccccc4o3)cc2Cl)CC1
58.5 | CC1=C(CC[C@@H](C)CO[C@@H]2O[C@H](CO)[C@@H](O)[C@H](O)[C@H]2O)O[C@H]2C[C@H]3[C@@H]4CC=C5C[C@@H](O[C@@H]6O[C@H](CO)[C@@H](O[C@@H]7O[C@@H](C)[C@H](O)[C@@H](O)[C@H]7O)[C@H](O)[C@H]6O[C@@H]6O[C@@H](C)[C@H](O)[C@@H](O)[C@H]6O)CC[C@]5(C)[C@H]4CC[C@]3(C)[C@@H]12
58.4 | NS(=O)(=O)c1ccc(S(=O)(=O)Nc2cccc3c(Cl)c[nH]c23)cc1
58.4 | COc1cc([C@H]2OC[C@H]3[C@@H]2CO[C@@H]3c2ccc(O)c(OC)c2)ccc1O
58.3 | N#Cc1c(N)[nH]c2cc(/C=C/c3cccc(F)c3)ccc12
57.9 | C=CC(=O)Nc1ccc2ncnc(Nc3cccc(Br)c3)c2c1
57.2 | CCn1cc(C(=O)O)c(=O)c2c(N)c(F)c(NC3CCCCC3)cc21
57.1 | CO[C@H]1C[C@@H]2CC[C@@H](C)[C@@](O)(O2)C(=O)C(=O)N2CCCC[C@H]2C(=O)O[C@H]([C@H](C)C[C@@H]2CC[C@H](n3cnnn3)[C@H](OC)C2)CC(=O)[C@H](C)/C=C(\C)[C@@H](O)[C@@H](OC)C(=O)[C@H](C)C[C@H](C)/C=C/C=C/C=C/1C
57.1 | O=C(CBr)N1CC([N+](=O)[O-])([N+](=O)[O-])C1
57.0 | Cl.Cl.Nc1cc(COc2c(Cl)cc(C[C@H](N)C(=O)O)cc2Cl)c2oc(-c3ccccc3)nc2c1
56.9 | CN1C(C(=O)Nc2nccs2)=C(O)c2ccccc2S1(=O)=O

A second listing of 3 compounds from above:

compound,inhibition (%)
CC(C)C(=O)N1CCN(c2ccc(NC(=O)c3cc4ccccc4o3)cc2Cl)CC1,58.8
CCCCCCS(=O)(=O)NC(=O)c1ccc(CSCc2ccc(-c3ccccc3)cc2)cc1,62.8
CC[C@H](C)[C@@H]([C@@H](CC(=O)N1CCC[C@H]1[C@H](OC)[C@@H](C)C(=O)N[C@H](C)[C@@H](O)c1ccccc1)OC)N(C)C(=O)[C@@H](NC(=O)[C@@H](NC)C(C)C)C(C)C,59.5